Assay results published in patent US9815825B2, “Coumarin derivatives and methods of use in treating cystic fibrosis, chronic obstructive pulmonary disease, and misfolded protein disorders” (DISCOVERYBIOMED, INC., priority 2013, dated 2017).

Chains of the proteins cited; added tags and fusions are not shown. A line that says so, or that is headed by a name, gives the form on record, which may keep a tag or linker.
UniProt P13569, with tags, fused parts or gaps DEL508-508: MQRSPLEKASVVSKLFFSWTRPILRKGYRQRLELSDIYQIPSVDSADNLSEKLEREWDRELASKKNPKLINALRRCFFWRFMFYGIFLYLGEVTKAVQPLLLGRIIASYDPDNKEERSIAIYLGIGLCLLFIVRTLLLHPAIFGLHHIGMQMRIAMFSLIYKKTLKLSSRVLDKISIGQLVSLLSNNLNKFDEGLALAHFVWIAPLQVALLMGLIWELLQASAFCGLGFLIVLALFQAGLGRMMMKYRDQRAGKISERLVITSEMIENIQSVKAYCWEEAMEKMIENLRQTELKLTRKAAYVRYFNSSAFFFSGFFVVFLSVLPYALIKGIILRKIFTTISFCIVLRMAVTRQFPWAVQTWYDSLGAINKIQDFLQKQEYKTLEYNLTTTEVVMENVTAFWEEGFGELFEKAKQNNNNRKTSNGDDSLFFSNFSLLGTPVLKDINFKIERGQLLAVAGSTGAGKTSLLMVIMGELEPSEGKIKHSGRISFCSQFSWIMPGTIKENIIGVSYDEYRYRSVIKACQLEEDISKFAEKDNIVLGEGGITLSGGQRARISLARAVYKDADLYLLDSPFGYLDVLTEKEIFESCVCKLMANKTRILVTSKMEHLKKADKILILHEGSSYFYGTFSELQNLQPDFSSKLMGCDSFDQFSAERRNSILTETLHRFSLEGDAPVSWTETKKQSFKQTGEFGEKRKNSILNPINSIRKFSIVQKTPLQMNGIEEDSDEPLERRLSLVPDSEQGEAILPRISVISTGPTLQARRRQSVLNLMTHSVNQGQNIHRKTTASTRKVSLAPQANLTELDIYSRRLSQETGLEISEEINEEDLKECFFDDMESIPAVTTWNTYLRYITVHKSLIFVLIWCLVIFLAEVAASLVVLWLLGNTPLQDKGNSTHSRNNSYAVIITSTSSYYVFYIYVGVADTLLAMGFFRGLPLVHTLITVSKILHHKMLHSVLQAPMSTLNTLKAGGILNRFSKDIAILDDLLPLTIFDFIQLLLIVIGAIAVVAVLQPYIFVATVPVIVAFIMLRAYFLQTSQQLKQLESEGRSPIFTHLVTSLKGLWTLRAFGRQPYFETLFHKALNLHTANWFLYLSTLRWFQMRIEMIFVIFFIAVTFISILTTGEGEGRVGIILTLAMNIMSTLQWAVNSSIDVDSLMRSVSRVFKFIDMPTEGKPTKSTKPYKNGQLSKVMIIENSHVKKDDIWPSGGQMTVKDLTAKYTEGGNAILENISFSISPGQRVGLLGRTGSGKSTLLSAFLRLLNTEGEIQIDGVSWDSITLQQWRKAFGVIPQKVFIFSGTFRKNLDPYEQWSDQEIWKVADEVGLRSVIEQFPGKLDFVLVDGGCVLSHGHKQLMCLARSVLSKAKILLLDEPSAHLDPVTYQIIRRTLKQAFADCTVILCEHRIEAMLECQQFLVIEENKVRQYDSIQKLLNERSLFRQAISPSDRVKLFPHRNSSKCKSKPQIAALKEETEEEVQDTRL

Legend:
[1] = molecular target: T1, delF508-CFTR Cl-channels (Homo sapiens, UniProt P13569, DEL508-508); assay: Epithelial VoltOhmmeter (EVOM) electrical bioassay, drop in transepithelial resistance; format: cell-based; conditions: 8-point or 12-point concentration-response curve
[2] = molecular target: T1, delF508-CFTR Cl-channels; assay: Ussing chamber short-circuit current in polarized CFBE cell monolayers; format: cell-based; conditions: for cAMP-stimulated Cl− current: Ussing chamber
[3] = system: ENaC; assay: Amiloride-sensitive transepithelial voltage in CFBE-delF508 cell monolayers; format: cell-based, human
[4] = molecular target: delF508-CFTR (Homo sapiens, UniProt P13569, DEL508-508); assay: Correction and activation of delF508-CFTR in multiple bioassays (fluorescence, biochemical, electrical); format: cell-based; conditions: read-out: EC50 on correction and activation of delF508-CFTR, basal (unstimulated) conditions, overnight treatment

SMILES	EC50 [1] [nM]	Maximum Effective Dose [1] [µM]	basal Cl currents ([2]; DBM 308 at 0.3 μM versus VX-809 at 3 μM)	cAMP-stimulated Cl− current ([2]; 24 hours treatment)	GlyH101-sensitive Cl− current ([2]; as compared to VX 809)	effect on amiloride-sensitive transepithelial voltage (VTE) ([3]; acute addition)	inhibition of amiloride-sensitive transepithelial voltage (VTE) ([3]; chronic (overnight) treatment, FIG. 39)	IC50 ([3]; read-out: IC50 for chronic inhibition of ENaC, both sets of data (FIG. 38 and FIG. 39), chronic treatment) [nM]	EC50 [4] [nM]	correction of functional delF508-CFTR chloride ion channels under basal conditions ([2]; nM concentrations (100 nM in FIG. 35), 24 hours treatment)
COc1ccccc1Nc1nc(-c2cc3cccc(C(F)(F)F)c3oc2=O)cs1	280	1.0	–	–	–	–	–	–	–	–
COc1ccccc1Nc1nc(-c2cc3cccc(C)c3oc2=O)cs1	260	1.0	–	–	–	–	–	–	–	–
COc1ccccc1Nc1nc(-c2cc3ccc(N)c([N+](=O)[O-])c3oc2=O)cs1	290	1.0	–	–	–	–	–	–	–	–
COc1ccccc1Nc1nc(-c2cc3cccc(Cl)c3oc2=O)cs1	200	0.3	equivalent or larger than VX-809 at 3 μM	little cAMP-stimulated Cl^− current	less GlyH101-sensitive Cl^− current	without effect	inhibited in a dose-dependent manner	1000 to 3000	100 to 1000	–
COc1ccccc1Nc1nc(-c2cc3cccc(N)c3oc2=O)cs1	250	0.3	–	triggers cAMP-stimulated Cl^− current at nM concentrations	–	–	–	–	–	robust correction
